Test results published in patent publication US20160193372A1, “METHODS OF IDENTIFYING SURROGATE IMAGING AGENTS FOR ALPHA EMITTER RADIOPHARMACEUTICALS AND THEIR USE IN TREATMENT OF DISEASE” (THE JOHNS HOPKINS UNIVERSITY, priority 2012, published 2016).

Assays:
canine OS = test: Phase I/II type protocol of ^225Ac-labeled trastuzumab in dogs with osteosarcoma: toxicity / MTD; format: in vivo; conditions: expected
Source text: In accordance with the inventive methods, the inventors will identify the MTD while also collecting data that will allow calculation of DLO and tumor dosimetry. […] This is because the tumor burden in dogs is generally lower than in leukemia patients, it is less rapidly accessible and therefore not likely to be as substantial a sink that removes alphaRPT from the circulation. Accordingly, the MTD in humans is likely an overestimate of the MTD in canines. The MTD in tumor-free monkeys is an underestimate for the opposite reason—there is no disease to take up alphaRPT in circulation. No study used imaging as in accordance with the inventive methods because the activity of ^225Ac was too low to image. As a result the MTD that is expressed in terms of AA cannot be related to the AD in marrow (acute DLO) and kidney (delayed DLO). Using the inventive methods the MTD is identified in tumor-bearing dogs and the imaging and PK data is collected which will relate DLO AD to measured hematologic and renal toxicity.
A phase I/II type protocol, similar to that used for human studies when the number of patients is limited will be used and is depicted in FIG. 8. Toxicity will be investigated at 2, 3 and 4 μCi/kg. Blood counts, blood urea nitrogen (BUN), creatinine and urine specific gravity (USG) will be monitored to evaluate toxicity. […] Circulating levels of free ^213Bi will be measured by counting immediately after sample collection and 5 to 24 hours later when ^225Ac is in equilibrium with its daughters. […]
The AA-based MTD will be identified and will subsequently use the PK/imaging data collected to relate dose-limiting organ AD to measured toxicity. The dose associated with a 10% DLT probability will be determined, where a DLT is defined as Grade 3 or above acute hematologic toxicity as well as renal toxicity based on Common Terminology Criteria for Adverse Events (CTCAE). […] Secondary objectives are to utilize PET imaging, collect PK data to relate dose-limiting organ (DLO) absorbed dose (AD) to measured toxicity. […]

[1] = in vivo; cited from earlier work

Substance	toxicity (canine OS; 2 μCi/kg dose level)	likelihood of encountering renal toxicity (canine OS; 3 μCi/kg) [%]	likelihood of encountering renal toxicity (canine OS; 4 μCi/kg) [%]	distribution compared with ^213Bi-Tz [1]
ATz: ^225Ac-DOTA-trastuzumab alphaRPT	minimal	10	30	
^111In-Tz: ^111In-labeled trastuzumab, imaging and biodistribution surrogate for ^213Bi-Tz				identical distribution
